Measured values published in PubChem BioAssay AID624417 (National Center for Advancing Translational Sciences (NCATS), 2012).
The list shows a part of the results, in another mix than the full data. Inconclusive results are not listed. Entries that show only a call come without a potency. Active and inactive are the calls of the source. Calls come from the whole dose curve; as a rule, active = well fitted inhibition curve with a large enough effect; inconclusive = small, poorly fitted or top-dose-only effect; inactive = no such curve, though single readings can be large or run the other way.

By UniProt entry, the sequences of proteins in these tests, tags left out.
UniProt P43220, whole entry, looked up: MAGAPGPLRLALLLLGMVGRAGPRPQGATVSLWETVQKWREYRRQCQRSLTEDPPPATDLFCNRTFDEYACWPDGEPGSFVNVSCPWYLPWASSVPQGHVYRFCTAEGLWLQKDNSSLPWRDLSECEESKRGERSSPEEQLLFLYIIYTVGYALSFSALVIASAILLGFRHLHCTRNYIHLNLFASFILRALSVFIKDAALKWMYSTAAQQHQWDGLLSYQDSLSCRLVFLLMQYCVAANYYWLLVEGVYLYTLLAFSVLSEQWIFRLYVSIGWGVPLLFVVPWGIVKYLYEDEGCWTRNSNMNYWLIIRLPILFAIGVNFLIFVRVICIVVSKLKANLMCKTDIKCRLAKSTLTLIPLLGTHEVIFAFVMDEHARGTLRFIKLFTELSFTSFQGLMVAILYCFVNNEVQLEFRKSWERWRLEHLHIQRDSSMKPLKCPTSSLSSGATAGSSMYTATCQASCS

The compounds below were run against Glucagon-like peptide 1 receptor (Homo sapiens) (UniProt P43220) (assay: qHTS of GLP-1 Receptor Inverse Agonists (Inhibition Mode)). Settings: HEK293 GLP-1R CRE-luciferase, luminescence, 24 h, GLP-1R form is constitutively active; series mostly up to 38.3 µM.
Note: nearly all actives have a fitted effect of over 55% in size.
Potency is the fitted concentration of half-maximal effect.

Structure (SMILES)	Potency
CCOP(=O)(Nc1ccccc1)OCC	inactive
Cc1ccc(NP(=O)(Oc2ccccc2F)Oc2ccccc2F)nc1	inactive
CN(C(=O)Cc1ccc(Cl)c(Cl)c1)[C@H]1CCCC[C@@H]1N1CCCC1	inactive
CC(=O)Nc1ccc([As](=O)(O)O)cc1	inactive
O=C(O)c1ccccc1[As](=O)(O)O	inactive
CCCC1OP(N)(=O)OCC1CC (centres undefined)	inactive
Nc1cccc2ccc([As](=O)(O)O)cc12	inactive
CCN(N=Nc1nonc1N)c1nonc1N	inactive
Clc1ccc(Cl)c(NC2=NCC(CBr)S2)c1 (centres undefined)	inactive
COc1ccccc1OP(=O)(Nc1ccc(C)cn1)Oc1ccccc1OC	inactive
Cc1ccc(OP(=O)(Nc2nccs2)Oc2ccc(C)cc2)cc1	inactive
CN(C(=O)Cc1ccc(Cl)c(Cl)c1)[C@H]1CCCC[C@H]1N1CCCC1	inactive
Cc1ccc(N/C(=N/P(=O)(N2CCOCC2)N2CCOCC2)N2CCOCC2)cc1	inactive
NC(=O)c1cc([N+](=O)[O-])cc([N+](=O)[O-])c1N	inactive
O=[N+]([O-])C1C(O)C(O)C([N+](=O)[O-])C(O)C1O (centres undefined)	inactive
Oc1ccccc1CNc1ccccn1	inactive
O=C(NC(Sc1ccncn1)C(Cl)(Cl)Cl)c1ccccc1 (centres undefined)	inactive
Nc1cc(N)c2nonc2c1[N+](=O)[O-]	inactive
Cc1ccc(NP(=O)(Oc2ccccc2)Oc2ccccc2)nc1	inactive
O=[N+]([O-])c1cccc2n[nH]nc12	inactive
CC(=O)N1C2C3N(C(C)=O)C1C1N(C(C)=O)C(C(N1C(C)=O)N3C(C)=O)N2C(C)=O	inactive
COc1ccc(C2=NCC(CBr)S2)cc1 (centres undefined)	inactive

Structure (SMILES)	Potency
c1cc(-c2nn[nH]n2)ccc1-c1nn[nH]n1	inactive
CC(C)c1nc(Nc2ccccc2)n(P(=O)(N(C)C)N(C)C)n1	inactive
CC(C)=N/N=C(\N)N[N+](=O)[O-]	inactive
CN(C)C(=O)OCCc1n(C)cc[n+]1C	inactive
CCN(/C(=N/P(=O)(N1CCOCC1)N1CCOCC1)N1CCOCC1)c1ccc(OC)cc1	inactive
Nc1ccc([As](=O)(O)c2ccc(N)cc2)cc1	inactive
O=C(Nc1cc([As](=O)(O)O)ccc1O)c1ccccc1	inactive
O=P1(N(CCCl)CCCl)OCCCS1 (centres undefined)	inactive
O=C(O)CNc1ccc([As](=O)(O)O)cc1	inactive
COC(=O)C1(C)COP(=O)(Nc2ccccc2)OC1 (centres undefined)	inactive
O=[N+]([O-])c1cccc(NC2=NCC(CBr)S2)c1 (centres undefined)	inactive
O=[N+]([O-])c1ncn(CCn2ncnc2[N+](=O)[O-])n1	inactive
CC(C)(C)C(=O)NC(Sc1ccncn1)C(Cl)(Cl)Cl (centres undefined)	inactive
C[C@H]1OP(=O)(Oc2ccccc2)[C@H](O)[C@H](O)[C@H]1N=[N+]=[N-] (some centres undefined)	inactive
O=P(Nc1ccccn1)(c1ccc(Br)cc1)c1ccc(Br)cc1	active: 6.31 µM
CN(C)C1(CNC(=O)c2ccc(Cl)c(S(N)(=O)=O)c2)CCCCC1	inactive
COc1ccc(N)c([N+](=O)[O-])c1[N+](=O)[O-]	inactive
O=C(OC1CN2CCC1CC2)c1cccc(Cl)c1 (centres undefined)	inactive
C(Cc1nn[nH]n1)Cc1nn[nH]n1	inactive
Nc1ccc([As](=O)(O)c2ccc([N+](=O)[O-])cc2)cc1	inactive
O=[As](O)(c1ccccc1)c1ccc(O)cc1	inactive
O=[N+]([O-])c1ncn(CCn2cnc([N+](=O)[O-])n2)n1	inactive

Structure (SMILES)	Potency
c1nnnn1CCn1cnnn1	inactive
O=P(Nc1nccs1)(c1ccccc1)c1ccccc1	inactive
CCc1cc(O)c([N+](=O)[O-])c(C)c1[N+](=O)[O-]	inactive
O=P1(Nc2nc3ccc(Cl)cc3s2)COc2ccccc2O1 (centres undefined)	inactive
CCOc1ccc(C2=NCC(CBr)S2)cc1 (centres undefined)	inactive
CC(=O)Nc1ccc([As](=O)(O)O)c(O)c1	inactive
CC(=O)Nc1ccc(Oc2c([N+](=O)[O-])cc([N+](=O)[O-])cc2[N+](=O)[O-])cc1	inactive
C[C@H]1OP(=O)(Oc2ccccc2)C[C@@H]2O[C@@H]21 (some centres undefined)	inactive
C[C@@H]1C=CCP(=O)(Oc2ccccc2)O1 (some centres undefined)	inactive
CC(=O)c1ccc(N2CC2c2ccncc2)cc1 (centres undefined)	inactive
COC(=O)C1(C)COP(=O)(NCc2ccccc2)OC1 (centres undefined)	inactive
O=P1(N(CCCl)CCCl)OCCC2CCCCN21 (centres undefined)	inactive
c1ccc(-c2nn[nH]n2)c(-c2nn[nH]n2)c1	inactive
Cc1ccc(NP(=O)(Oc2cccc(C)c2)Oc2cccc(C)c2)nc1	inactive
CCNC(=S)/N=C(\N)N[N+](=O)[O-]	inactive
CN(C)C(=O)Oc1noc2ccccc12	inactive
O=C(OC1CN2CCC1CC2)c1ccccc1 (centres undefined)	inactive
CCC(=O)N1C2C3N(C(=O)CC)C1C1N(C(=O)CC)C(C(N1C(=O)CC)N3C(=O)CC)N2C(=O)CC	inactive
COC(=O)c1cc2c(s1)N=C(c1ccccc1)N(C)P2(=O)N1CCOCC1 (centres undefined)	inactive
CC(=O)NC(SC(=S)N(CC(C)C)CC(C)C)C(Cl)(Cl)Cl (centres undefined)	inactive
